The values that follow are results of earlier work, collected in publication PMC10945480 (Journal of Medicinal Chemistry, 2024).

A value given as a limit tells only on which side of the number the result lay.

In this series the test system is washed human platelets. The conditions noted are these: read-out: platelet aggregation IC50, U46619 induced, U46619 (1 μM); cited from earlier work.

What is called IC50 is the point on the concentration scale where inhibition reaches its midpoint. As for `CC(=O)Oc1ccccc1C(=O)O` [aspirin], the 50% inhibitory concentration (IC50) was greater than 200 µM.
